# Target: T1, phosphorylated Tau protein (Homo sapiens, UniProt P10636)
# T1 construct: from tissue; host or cells: brain extracts from Alzheimer (AD+) and non-Alzheimer (AD-) patients, diluted in a pool of normal plasmas
# Experiment: Precipitation of phosphorylated Tau protein from brain extracts spiked into plasma by agent I, PhosphoTau ELISA of pellet and supernatant
# Settings: AD+ brain extracts spiked into plasma, 60 minutes at 37° C.
# Protocol: The analysis is carried out according to the conventional “ELISA sandwich-type” immunoenzymatic technique as described by Kohnken et al. (Neuroscience Letters 287 (2000) 187-190).
# The PhosphoTau Elisa assay is based on the use of Dynex microplates to which are bound 3 μg/ml of goat anti-mouse Fc antibodies (Pierce) in a 25 mM KHPO4 buffer (pH 7.2) containing 140 mM NaCl, 1 mM EDTA and 2 mM NaN3, for three hours at 24° C. The wells are then passivated with a TBS (25 mM Tris-HCl, pH 7.5, 140 mM NaCl)-casein (1%) buffer for 1 h at 24° C., and then incubated for 2 h at 24° C. with 3 μg/ml of Tau1 (Chemicon) and CP27 (AppliedNeuroSolutions) antibodies diluted in TBS casein buffer.
# Standards and brain extracts are diluted in a pool of normal plasmas for these assays and deposited at a rate of 80 μL per well in duplicate. […] The biotinylated antibody is detected with 0.4 μg/ml of a streptavidin-peroxydase conjugate (Pierce) diluted in TBS-casein buffer and incubated for 45 minutes at 24° C. A Lumiglo reagent (Kirkegaard and Perry laboratories, US) is added to each well and the chemiluminescence is read in a luminometer (Berthold, Centro LB 960). […]
# The pellets are recovered and are separated from the supernatants. […] The samples are then ready to be deposited on plates. […]
# The pellets are recovered and are separated from the supernatants. […] The samples are then ready to be deposited onto plates.
smiles,measurement,setting,value
[H]/N=C(/N)N[C@H]1[C@H](O)[C@@H](O)[C@H](O[C@@H]2O[C@@H](C)[C@](O)(C=O)[C@H]2O[C@@H]2O[C@@H](CO)[C@H](O)[C@@H](O)[C@@H]2NC)[C@@H](N/C(N)=N\[H])[C@@H]1O [streptomycin],concentration of agent I that eliminates the presence of phosphorylated Tau protein in the supernatant,,500 mg/mL
same,fraction in which the phosphorylated Tau protein is found after treatment with agent I,streptomycin at low concentration,found in the pellet
